From ChEMBL document CHEMBL1201862, “PubChem BioAssay data set” (2004)

Amino acid sequences for entries named in this document (tags omitted).
UniProt P10635, whole entry: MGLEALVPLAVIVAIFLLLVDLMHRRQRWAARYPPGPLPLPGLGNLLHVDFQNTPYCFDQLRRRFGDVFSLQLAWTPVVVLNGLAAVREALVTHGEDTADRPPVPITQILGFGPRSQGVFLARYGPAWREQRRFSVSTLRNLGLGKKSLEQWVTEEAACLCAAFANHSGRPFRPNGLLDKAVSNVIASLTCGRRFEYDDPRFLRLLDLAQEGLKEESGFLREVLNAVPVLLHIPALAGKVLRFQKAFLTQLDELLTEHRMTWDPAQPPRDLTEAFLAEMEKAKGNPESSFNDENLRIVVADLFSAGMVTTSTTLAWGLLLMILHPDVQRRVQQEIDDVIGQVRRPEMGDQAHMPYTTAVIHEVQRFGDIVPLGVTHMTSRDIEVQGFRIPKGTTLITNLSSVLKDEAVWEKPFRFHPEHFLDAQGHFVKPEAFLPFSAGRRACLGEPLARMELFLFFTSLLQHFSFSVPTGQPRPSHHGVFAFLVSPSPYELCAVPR
UniProt P08684, whole entry: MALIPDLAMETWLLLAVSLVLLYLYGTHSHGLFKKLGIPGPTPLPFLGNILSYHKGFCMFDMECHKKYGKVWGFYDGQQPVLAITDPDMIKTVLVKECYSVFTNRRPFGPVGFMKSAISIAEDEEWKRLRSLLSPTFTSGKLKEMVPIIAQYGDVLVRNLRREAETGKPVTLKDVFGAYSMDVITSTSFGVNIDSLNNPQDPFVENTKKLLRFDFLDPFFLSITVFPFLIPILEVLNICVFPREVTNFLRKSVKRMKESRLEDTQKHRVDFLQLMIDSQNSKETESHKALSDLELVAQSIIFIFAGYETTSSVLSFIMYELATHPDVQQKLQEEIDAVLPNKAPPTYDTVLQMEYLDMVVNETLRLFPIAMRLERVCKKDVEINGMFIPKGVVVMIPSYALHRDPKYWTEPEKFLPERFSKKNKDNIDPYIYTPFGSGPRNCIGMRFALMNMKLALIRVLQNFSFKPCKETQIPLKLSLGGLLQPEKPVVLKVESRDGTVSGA

Assays:
Cytochrome P450 2D6 = Cytochrome P450 2D6 (Homo sapiens, UniProt P10635);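 note: CYP2D6 member of a cytochrome P450 panel assay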
Cytochrome P450 3A4 = Cytochrome P450 3A4 (Homo sapiens, UniProt P08684);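 note: CYP3A4 tested as one member of a cytochrome P450 panel screen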

With C#CCOC(=O)C1=CCCN(C)C1 [ARECAIDINE PROPARGYL ESTER] the AC50 (Cytochrome P450 2D6) was inconclusive: 31.6 µM and the AC50 (Cytochrome P450 3A4) was “inactive”.
